These are literature values, as cited in paper PMC2884063.

As usually defined, the Kd is the constant that tells how readily two partners part at equilibrium.

For the data set, the target named is GFP (Aequorea victoria) [GFP: P42212].

Regarding GFP (from UniProt P42212), the Kd is 100 µM.
